Drawing on ChEMBL document CHEMBL6074678, “Selectively Antagonizing the NOD1-Mediated Inflammatory Signaling Pathway Mitigates the Gastric Inflammation Induced by Helicobacter pylori Infection” (J Med Chem, 2024), this text covers inhibition for 16 molecules.

Protein sequences, listed by entry. Tags and fused reporters are not part of them.
UniProt O60603, whole entry: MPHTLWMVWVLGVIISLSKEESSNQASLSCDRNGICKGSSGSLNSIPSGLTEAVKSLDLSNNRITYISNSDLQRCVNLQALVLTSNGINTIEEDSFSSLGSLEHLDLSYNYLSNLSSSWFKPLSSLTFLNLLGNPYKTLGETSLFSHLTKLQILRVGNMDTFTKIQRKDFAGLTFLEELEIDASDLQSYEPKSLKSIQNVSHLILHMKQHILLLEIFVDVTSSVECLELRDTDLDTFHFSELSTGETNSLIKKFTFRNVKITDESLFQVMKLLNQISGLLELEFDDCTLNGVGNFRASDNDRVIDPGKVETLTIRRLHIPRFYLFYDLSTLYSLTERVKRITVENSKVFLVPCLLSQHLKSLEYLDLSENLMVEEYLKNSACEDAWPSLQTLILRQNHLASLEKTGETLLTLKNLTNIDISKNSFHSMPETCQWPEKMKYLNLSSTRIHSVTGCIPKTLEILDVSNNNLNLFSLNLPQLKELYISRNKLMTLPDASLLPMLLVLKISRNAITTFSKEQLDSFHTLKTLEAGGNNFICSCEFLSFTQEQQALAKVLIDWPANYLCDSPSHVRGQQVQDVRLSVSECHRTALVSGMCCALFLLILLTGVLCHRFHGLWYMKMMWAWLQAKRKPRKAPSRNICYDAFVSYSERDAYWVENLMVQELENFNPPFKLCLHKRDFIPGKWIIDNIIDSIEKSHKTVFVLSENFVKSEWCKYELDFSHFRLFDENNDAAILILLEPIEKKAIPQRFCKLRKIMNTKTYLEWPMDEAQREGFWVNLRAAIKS
UniProt O43353, whole entry: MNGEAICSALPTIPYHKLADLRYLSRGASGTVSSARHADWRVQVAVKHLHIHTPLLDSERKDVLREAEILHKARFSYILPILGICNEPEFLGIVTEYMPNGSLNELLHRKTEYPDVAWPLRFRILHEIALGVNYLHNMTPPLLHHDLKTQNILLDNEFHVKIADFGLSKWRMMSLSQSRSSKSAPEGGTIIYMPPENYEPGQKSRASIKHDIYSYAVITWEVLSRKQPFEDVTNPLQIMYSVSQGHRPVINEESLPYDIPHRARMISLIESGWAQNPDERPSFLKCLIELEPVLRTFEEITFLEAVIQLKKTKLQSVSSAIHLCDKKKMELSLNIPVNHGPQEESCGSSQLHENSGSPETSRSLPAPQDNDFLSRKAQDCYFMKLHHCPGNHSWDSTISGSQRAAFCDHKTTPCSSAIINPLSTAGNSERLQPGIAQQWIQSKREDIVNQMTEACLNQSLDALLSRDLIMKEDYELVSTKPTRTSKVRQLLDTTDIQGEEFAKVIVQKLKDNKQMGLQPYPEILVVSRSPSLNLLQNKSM
UniProt O00206, whole entry: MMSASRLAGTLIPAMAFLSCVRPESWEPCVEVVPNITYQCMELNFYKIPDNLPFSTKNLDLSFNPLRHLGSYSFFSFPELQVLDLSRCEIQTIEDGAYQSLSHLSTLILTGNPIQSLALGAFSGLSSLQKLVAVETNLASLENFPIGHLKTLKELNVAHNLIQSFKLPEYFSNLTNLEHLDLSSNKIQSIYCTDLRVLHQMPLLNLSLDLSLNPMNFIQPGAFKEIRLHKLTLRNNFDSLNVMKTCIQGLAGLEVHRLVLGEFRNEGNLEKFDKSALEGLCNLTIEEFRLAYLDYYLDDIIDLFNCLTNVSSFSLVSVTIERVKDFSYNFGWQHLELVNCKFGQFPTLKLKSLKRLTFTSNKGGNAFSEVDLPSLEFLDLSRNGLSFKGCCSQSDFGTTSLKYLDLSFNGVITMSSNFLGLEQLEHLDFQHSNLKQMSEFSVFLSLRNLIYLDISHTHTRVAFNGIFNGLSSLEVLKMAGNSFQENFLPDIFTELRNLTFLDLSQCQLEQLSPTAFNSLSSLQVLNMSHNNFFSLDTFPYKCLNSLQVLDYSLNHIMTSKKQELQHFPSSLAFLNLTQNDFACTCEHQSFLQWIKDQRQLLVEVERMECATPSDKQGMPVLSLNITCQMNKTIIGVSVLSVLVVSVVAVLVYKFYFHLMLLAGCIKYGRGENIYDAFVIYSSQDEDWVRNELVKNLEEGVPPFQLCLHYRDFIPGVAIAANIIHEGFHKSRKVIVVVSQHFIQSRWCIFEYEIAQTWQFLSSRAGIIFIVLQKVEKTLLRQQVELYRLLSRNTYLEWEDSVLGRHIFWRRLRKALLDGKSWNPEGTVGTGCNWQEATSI
UniProt Q9HC29, whole entry: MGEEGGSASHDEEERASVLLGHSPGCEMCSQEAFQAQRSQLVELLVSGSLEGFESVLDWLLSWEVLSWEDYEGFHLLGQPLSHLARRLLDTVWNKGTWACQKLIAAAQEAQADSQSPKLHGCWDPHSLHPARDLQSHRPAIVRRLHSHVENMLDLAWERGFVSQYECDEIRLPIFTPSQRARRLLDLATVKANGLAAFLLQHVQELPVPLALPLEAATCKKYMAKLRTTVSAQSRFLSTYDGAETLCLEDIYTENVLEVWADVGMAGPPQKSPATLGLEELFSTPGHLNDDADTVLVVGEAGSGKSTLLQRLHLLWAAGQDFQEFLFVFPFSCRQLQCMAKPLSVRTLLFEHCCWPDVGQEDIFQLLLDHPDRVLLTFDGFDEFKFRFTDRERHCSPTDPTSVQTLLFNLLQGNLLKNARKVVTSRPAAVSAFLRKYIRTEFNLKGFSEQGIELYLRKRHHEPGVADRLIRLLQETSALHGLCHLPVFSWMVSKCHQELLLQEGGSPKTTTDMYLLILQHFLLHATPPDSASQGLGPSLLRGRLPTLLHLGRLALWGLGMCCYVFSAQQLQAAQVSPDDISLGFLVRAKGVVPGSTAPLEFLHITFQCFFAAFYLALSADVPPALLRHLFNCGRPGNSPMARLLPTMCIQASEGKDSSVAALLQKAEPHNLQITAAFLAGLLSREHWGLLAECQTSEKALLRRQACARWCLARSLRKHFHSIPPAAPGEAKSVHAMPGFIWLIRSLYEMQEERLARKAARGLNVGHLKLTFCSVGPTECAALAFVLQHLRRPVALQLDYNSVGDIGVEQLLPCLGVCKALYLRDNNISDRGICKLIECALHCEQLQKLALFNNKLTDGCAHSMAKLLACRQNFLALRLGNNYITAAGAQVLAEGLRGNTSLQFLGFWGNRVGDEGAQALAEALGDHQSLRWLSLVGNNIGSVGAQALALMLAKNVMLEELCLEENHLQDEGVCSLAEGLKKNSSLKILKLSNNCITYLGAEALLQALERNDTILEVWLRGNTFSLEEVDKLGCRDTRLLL

Experiment [1] concerns the target T1, Nucleotide-binding oligomerization domain-containing protein 1 (Mus musculus) (UniProt Q8BHB0).
T1 sequence (whole entry): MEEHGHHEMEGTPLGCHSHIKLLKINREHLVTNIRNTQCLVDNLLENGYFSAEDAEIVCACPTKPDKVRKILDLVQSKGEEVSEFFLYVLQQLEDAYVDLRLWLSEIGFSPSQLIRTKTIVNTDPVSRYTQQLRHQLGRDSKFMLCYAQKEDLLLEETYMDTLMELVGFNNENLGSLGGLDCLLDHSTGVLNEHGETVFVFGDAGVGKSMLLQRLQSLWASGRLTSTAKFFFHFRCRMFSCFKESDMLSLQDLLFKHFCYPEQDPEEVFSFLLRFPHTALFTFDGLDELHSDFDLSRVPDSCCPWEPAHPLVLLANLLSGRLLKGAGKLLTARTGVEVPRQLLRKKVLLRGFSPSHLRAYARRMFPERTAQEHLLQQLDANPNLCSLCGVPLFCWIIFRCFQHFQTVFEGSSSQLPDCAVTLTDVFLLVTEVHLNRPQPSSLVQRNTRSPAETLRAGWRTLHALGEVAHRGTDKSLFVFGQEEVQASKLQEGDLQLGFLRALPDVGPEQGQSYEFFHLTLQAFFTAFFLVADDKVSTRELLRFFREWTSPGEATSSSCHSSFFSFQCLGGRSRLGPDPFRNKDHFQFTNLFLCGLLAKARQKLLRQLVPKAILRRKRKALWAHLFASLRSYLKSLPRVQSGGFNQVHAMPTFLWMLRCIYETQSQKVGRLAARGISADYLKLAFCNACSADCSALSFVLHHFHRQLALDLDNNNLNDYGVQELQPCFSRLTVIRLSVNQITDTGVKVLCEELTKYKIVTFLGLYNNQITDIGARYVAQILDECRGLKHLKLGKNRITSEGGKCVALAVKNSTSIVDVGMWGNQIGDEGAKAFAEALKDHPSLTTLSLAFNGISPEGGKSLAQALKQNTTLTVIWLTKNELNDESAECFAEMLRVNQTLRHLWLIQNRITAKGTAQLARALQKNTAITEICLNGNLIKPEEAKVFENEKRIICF
In words: Antagonist activity at mouse NOD1 expressed in HEK-Blue cells assessed as decrease in SEAP secretion at 1 uM incubated for 3 hrs followed by C12-iE-DAP stimulation for 20 hrs by spectrophotometry relative to control. It counts as cell-based.

Experiment [2] has as its target T2, Nucleotide-binding oligomerization domain-containing protein 2 (Mus musculus) (UniProt Q8K3Z0).
T2 sequence (whole entry): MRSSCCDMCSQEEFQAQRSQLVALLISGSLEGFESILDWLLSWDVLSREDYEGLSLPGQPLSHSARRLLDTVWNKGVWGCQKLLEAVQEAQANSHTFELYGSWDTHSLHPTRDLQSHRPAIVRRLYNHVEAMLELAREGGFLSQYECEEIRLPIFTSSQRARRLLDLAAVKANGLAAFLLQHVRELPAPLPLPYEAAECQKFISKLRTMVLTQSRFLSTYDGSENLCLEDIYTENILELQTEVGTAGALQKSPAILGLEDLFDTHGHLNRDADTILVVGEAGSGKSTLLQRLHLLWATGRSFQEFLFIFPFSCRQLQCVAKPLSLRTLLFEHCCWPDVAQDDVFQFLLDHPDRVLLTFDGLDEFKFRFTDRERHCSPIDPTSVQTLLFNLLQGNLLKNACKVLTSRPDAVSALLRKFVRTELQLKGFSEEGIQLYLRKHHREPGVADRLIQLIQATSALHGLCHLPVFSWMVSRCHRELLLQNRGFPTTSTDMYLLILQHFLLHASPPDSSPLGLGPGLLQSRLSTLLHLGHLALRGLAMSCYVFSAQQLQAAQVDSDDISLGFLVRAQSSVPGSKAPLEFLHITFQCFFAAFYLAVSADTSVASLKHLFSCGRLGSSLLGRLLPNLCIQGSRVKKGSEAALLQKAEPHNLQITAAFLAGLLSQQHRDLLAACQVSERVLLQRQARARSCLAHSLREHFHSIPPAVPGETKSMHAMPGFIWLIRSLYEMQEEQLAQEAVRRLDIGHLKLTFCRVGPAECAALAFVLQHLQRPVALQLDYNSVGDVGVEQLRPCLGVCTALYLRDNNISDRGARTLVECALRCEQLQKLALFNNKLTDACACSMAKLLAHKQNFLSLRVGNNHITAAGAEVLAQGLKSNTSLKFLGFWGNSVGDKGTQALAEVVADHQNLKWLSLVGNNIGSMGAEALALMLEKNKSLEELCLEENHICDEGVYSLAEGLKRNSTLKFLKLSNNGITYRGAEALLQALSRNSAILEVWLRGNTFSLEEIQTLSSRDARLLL
Description: Inhibition of mouse NOD2 at 1 uM relative to control.

Experiment [3] concerns the target Toll-like receptor 2 (Homo sapiens) (UniProt O60603). Description: Inhibition of human TLR2 at 1 uM relative to control.
Experiment [4] deals with T3, Toll-like receptor 9 (Homo sapiens) (UniProt Q9NR96).
T3 sequence (whole entry): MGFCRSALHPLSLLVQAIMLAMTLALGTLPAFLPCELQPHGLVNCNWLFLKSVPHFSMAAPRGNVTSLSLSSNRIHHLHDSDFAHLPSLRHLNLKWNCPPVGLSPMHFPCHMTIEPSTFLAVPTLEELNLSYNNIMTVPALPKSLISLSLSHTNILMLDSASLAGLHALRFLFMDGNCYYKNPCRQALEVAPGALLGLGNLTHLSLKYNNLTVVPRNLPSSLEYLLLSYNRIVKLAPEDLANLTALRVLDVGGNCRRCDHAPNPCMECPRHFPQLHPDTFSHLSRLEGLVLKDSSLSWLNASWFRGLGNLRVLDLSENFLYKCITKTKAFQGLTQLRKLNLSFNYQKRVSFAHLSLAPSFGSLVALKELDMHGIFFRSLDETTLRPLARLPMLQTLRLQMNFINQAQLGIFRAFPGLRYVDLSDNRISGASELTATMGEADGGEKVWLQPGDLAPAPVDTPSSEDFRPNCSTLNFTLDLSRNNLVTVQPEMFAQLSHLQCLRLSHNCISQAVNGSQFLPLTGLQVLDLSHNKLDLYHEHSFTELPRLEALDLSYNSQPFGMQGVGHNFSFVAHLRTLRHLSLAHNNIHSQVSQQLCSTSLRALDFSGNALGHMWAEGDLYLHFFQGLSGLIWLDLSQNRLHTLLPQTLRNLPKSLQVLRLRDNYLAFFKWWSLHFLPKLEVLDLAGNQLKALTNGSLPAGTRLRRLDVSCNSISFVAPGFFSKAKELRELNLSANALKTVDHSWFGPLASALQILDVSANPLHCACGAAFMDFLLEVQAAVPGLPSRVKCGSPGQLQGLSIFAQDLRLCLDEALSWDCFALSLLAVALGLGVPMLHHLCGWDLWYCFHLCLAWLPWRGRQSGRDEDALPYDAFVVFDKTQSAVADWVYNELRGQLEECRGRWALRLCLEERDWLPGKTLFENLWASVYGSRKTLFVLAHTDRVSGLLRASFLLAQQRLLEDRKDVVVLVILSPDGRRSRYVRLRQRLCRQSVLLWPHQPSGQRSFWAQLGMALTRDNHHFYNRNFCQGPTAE
Description: Inhibition of human TLR9 at 1 uM relative to control.

The target in experiment [5] is Receptor-interacting serine/threonine-protein kinase 2 (Homo sapiens) (UniProt O43353). Description: Inhibition of RIP2 (unknown origin) at 10 uM relative to control.
The target in experiment [6] is Toll-like receptor 4 (Homo sapiens) (UniProt O00206). In words: Inhibition of human TLR4 at 1 uM relative to control.
Experiment [7] concerns the target Nucleotide-binding oligomerization domain-containing protein 2 (Homo sapiens, UniProt Q9HC29). In words: Inhibition of human NOD2 at 1 uM relative to control.
In experiment [8] the target is T1, Nucleotide-binding oligomerization domain-containing protein 1 (Mus musculus). Description: Antagonist activity at mouse NOD1 expressed in HEK-Blue cells assessed as decrease in SEAP secretion at 5 uM incubated for 3 hrs followed by C12-iE-DAP stimulation for 20 hrs by spectrophotometry relative to control. It counts as cell-based.
The mark [9] stands for this setting: HEK-Blue mNOD1, filed as antagonist, time 23.0 hrs.

`Cc1nc2cnccc2c(=O)n1-c1ccc(Cl)c(NS(=O)(=O)c2ccccc2F)c1`: the inhibition in experiment [1] (HEK-Blue mNOD1, time 23.0 hrs) is 0%.

Take `O=c1c2cc(C(F)(F)F)ccc2nc(Cl)n1-c1ccc(Cl)c(NS(=O)(=O)c2ccccc2F)c1`: the inhibition in experiment [1] (setting [9]) worked out at 71.2%. Consider `O=c1c2ccncc2nc(Cl)n1-c1ccc(Cl)c(NS(=O)(=O)c2ccc([N+](=O)[O-])cc2F)c1`, for which the inhibition in experiment [1] (setting [9]) amounted to 87.9%. `Cc1noc(C)c1S(=O)(=O)Nc1cc(-n2c(Cl)nc3cnc(Cl)cc3c2=O)ccc1Cl`: in experiment [1] (setting [9]), the inhibition is 72.9%. On the same count and under the same terms, the figure for `O=c1c2cc(Cl)ncc2nc(Cl)n1-c1ccc(Cl)c(NS(=O)(=O)c2ccc3c(c2)CCO3)c1` is 70.3%; for `O=c1c2cc(Cl)c(Cl)cc2nc(Cl)n1-c1ccc(Cl)c(NS(=O)(=O)c2ccccc2F)c1` it is 49.7%. As to `CS(=O)(=O)c1ccc2nc(Cl)n(-c3ccc(Cl)c(NS(=O)(=O)c4ccccc4C#N)c3)c(=O)c2c1`, the inhibition in experiment [2] is 27.4%; in experiment [3], 12.7%; in experiment [1] (setting [9]) it was 75.8%; in experiment [4] it was 6.1%; in experiment [5], less than 10%; in experiment [6], 13.3%. In experiment [7], this molecule registered an inhibition of 25.2%. Consider `O=c1c2cc(Cl)ccc2nc(F)n1-c1ccc(Cl)c(NS(=O)(=O)c2ccccc2F)c1`, for which the inhibition in experiment [8] (setting [9]) came out at 43.2%. As for `CSc1nc2ccc(Cl)cc2c(=O)n1-c1ccc(Cl)c(NS(=O)(=O)c2ccccc2F)c1`, the inhibition in experiment [8] (HEK-Blue mNOD1, time 23.0 hrs) stood at 31.9%. Still for that read-out and setting: the figure for `O=c1c2cc(Cl)ccc2ncn1-c1ccc(Cl)c(NS(=O)(=O)c2ccccc2F)c1` is less than 10%. As to `O=c1c2ccncc2nc(F)n1-c1ccc(Cl)c(NS(=O)(=O)c2ccccc2F)c1`, in experiment [1] (HEK-Blue mNOD1, time 23.0 hrs), the inhibition is 13.6%.

Take `O=c1c2cc(Cl)ncc2nc(Cl)n1-c1ccc(Cl)c(NS(=O)(=O)c2ccccc2C(F)(F)F)c1`: in experiment [1] (HEK-Blue mNOD1, time 23.0 hrs), the inhibition was determined as 38.3%. Regarding `O=c1c2cc(Cl)ncc2nc(Cl)n1-c1ccc(Cl)c(NS(=O)(=O)c2cccnc2)c1`, the inhibition in experiment [1] (setting [9]) was 69.8%.

On to `O=c1c2nc(Cl)cnc2nc(Cl)n1-c1ccc(Cl)c(NS(=O)(=O)c2ccccc2F)c1`, for which, in experiment [1] (setting [9]), the inhibition is 67.9%. Turning to `O=c1c2ccc([N+](=O)[O-])cc2nc(Cl)n1-c1ccc(Cl)c(NS(=O)(=O)c2ccccc2F)c1`, the inhibition in experiment [1] (HEK-Blue mNOD1, time 23.0 hrs) was 33.2%.

Take `O=c1c2cc(Cl)ncc2nc(Cl)n1-c1ccc(Cl)c(NS(=O)(=O)c2ccccc2Cl)c1`: the inhibition in experiment [1] (setting [9]) stood at 85.7%.

Broadly, the inhibition is the share of the control response that was lost under treatment.
